Measurements: patent US4921850A, “3-propenylcephem derivative” (Eisai Co., Ltd., priority 1986, dated 1990)

Assay: in vivo
Settings: intravenous, physiological saline solution, five ICR male 6 weeks-old mouse, read-out: values of acute toxicity
Source text: (1) Acute toxicity in mouse:
The compounds according to this invention dissolved in a physiological saline solution were intravenously dosed to five ICR male 6 weeks-old mouse.

With `CC[N+](C)(C/C=C/C1=C(C(=O)[O-])N2C(=O)[C@@H](NC(=O)/C(=N\OCF)c3nsc(N)n3)[C@H]2SC1)CC(N)=O` (stereo partly drawn) [Example 1, 7β-[2-(5-Amino-1,2,4-thiadiazol-3-yl)-(Z)-2-fluoromethoxyiminoacetamido]-3-[(E)-3-(carbamoylmethylethylmethylammonio)-1-propen-1-yl]-3-cephem-4-carboxylate] the LD50 was greater than 2000 mg/kg.
